Key:
[1] = Calcein dye leakage from microbial model LUVs; conditions: microbial model membrane
Procedure: (§1) To obtain an insight into the mechanism of membrane discrimination, large unilamellar vesicles (LUVs) which mimic the cytoplasmic membrane of mammalian (PC/Cholesterol) and microbial (PE:PG) cells were used. […] More dramatic results were observed when the experiments were carried out on PC/Cholesterol LUVs.

S. aureus or MRSA = type: cell-based, Staphylococcus aureus; conditions: for MIC against S. aureus or MRSA (n = 5): Table 4, range over 5 strains
Procedure: MIC of cationic polymers and polypeptide were tested in accordance with the Clinical and Laboratory Standards Institute (CLSI) guidelines against a panel of antibiotic-susceptible/-resistant bacteria, yeasts and fungal strains. Bacterial and yeast strains were cultured on tryptic soy agar (TSA) and Sabaroud dextrose agar (SDA) plates (Neogen Corporation, MI, USA) overnight respectively. Inocula in Mueller-Hinton broth (MHB) for bacteria and SD broth for C. albicans (Beckton Dickinson, MD, USA) were prepared at 0.5 McFarland. The suspensions were then diluted to a final concentration of 10^5 CFU/ml in a 96-well microtitre plate (SPL Life Sciences Co., Ltd, Korea). Polymers and polypeptides were added to the inoculum in 2-fold serial dilutions to give a range of concentrations from 2-1024 μg/ml. […] The antimicrobial activities were compared with topical antiseptic agents, BAK and CHX. A similar protocol was used to determine the MIC of εPL against antibiotic-resistant pathogens. MIC of the polymers and polypeptides against Fusarium strains was determined in full strength RPMI-1640 buffer. Fungal spores were recovered from a 5-day old culture on a potato dextrose agar and diluted to a concentration of 10^5 spores/ml in 0.9% saline solution. A further 50-fold dilution was done in RPMI-1640 buffer and 100 μl of the inoculum was added to 96 well plates containing an equal volume of test peptides at 2-fold serial dilutions. 200 μl of inoculum without any additives and buffer alone served as positive and negative controls, respectively. The plate was then incubated at 30° C. for 48 h. The absorbance value was measured at 600 nm as before and the lowest concentration of the peptide which inhibited 90% growth was reported. All MIC determinations were performed in duplicates.
MICs of polymers/antibiotics were determined using the microdilution method in 96 well microtitre plates (SPL Life Sciences Co., Ltd, Korea), following the guidelines of Clinical and Laboratory Standards Institute (CLSI) document M100-S18. Briefly, polymers (1-512 μg/ml) or antibiotics were dissolved in appropriate media (Mueller Hinton broth, MHB for bacteria; Sabaroud's Dextrose (SD) broth for yeasts and RPMI buffer for Fusarium strains) and 100 μl of this was then mixed with an equal volume of microbial inoculum (OD600=˜0.08) in the same media and shaken in a closed incubator.

[2] = Calcein dye leakage from mammalian model LUVs; conditions: highest (0.5) peptide:lipid ratio
Procedure: as §1

[3] = tested on: primary human dermal fibroblasts (HDFs); assay: MTS cytotoxicity assay; conditions: for Cytotoxicity (in μg/ml) for HDFs: Concentration at which complete cytotoxicity was observed in MTS and HCA; for Cytotoxicity for primary human dermal fibroblasts: Table 5
Procedure: MTS ((3-(4,5-dimethylthiazol-2-yl)-5-(3-carboxymethoxyphenyl)-2-(4-sulfophenyl)-2H-tetrazolium)) assay and high content analysis (HCA) were performed to elucidate the effect of various polymers on metabolic activity and morphological parameters of cultured human dermal fibroblasts (hDF), respectively as described previously. The antineoplastic agent, nocodazole (5 μg/ml), served as the […] control whereas cells treated with PBS served as positive control. The average values from three independent triplicate experiments are reported. Cells were cultured in 96-well plates and scanned (16 randomly selected fields/well) using an automated microscope IN Cell Analyzer 2200 (GE Healthcare). The multi-parametric cytotoxicity bio-application module of the IN Cell Investigator software (GE Healthcare) was used in quantitative estimations and morphotypic analysis of acquired images, which were automatically converted into color-coded heatmaps using Spotrfire® software.
Human dermal fibroblast cells were seeded in 96-well plates (2×10^3 cells/well) and incubated for 24 h at 37° C. and 5% CO2. Cells were then treated with various concentrations of polymers or peptides (62.5 μg/ml-1 mg/ml. At the end of the treatment period (after 24 h), 20 or 50 μl of MTS tetrazolium solution was added into 96-well or 12-well plates and further incubated for 2 h at 37° C. Subsequently, the absorbance was measured at 490 nm using a microplate reader (Infinite M200 Pro, Tecan, Switzerland) and the relative cell viability was calculated. Each treatment was performed in two triplicates and reported.
The cytotoxicity of peptides and polymers were determined using CellTier 96® Aqueous One solution cell proliferation assay kit according to the manufacturer's instruction (Promega Corporation, Madison, Wis.). This assay evaluates mitochondrial function by measuring ability of viable cells to reduce MTS ((3-(4,5-dimethylthiazol-2-yl)-5-(3-carboxymethoxyphenyl)-2-(4-sulfophenyl)-2H-tetrazolium)) into a quantifiable […] formazan product. HDFs were seeded in 96-well plates (2×10^3 cells/well) and incubated for 24 h at 37° C. and 5% CO2. Cells were then treated with a concentrated stock solution of polymers (final concentration 62.5-2000 μg/ml in the well) or peptides (final concentration 4-1000 μg/ml in the well). After 24 h, 20 μl of MTS tetrazolium solution was added into 96-well well plates and further incubated for 2 h at 37° C. Subsequently, the absorbance was measured at 490 nm using a microplate reader (Infinite M200 Pro, Tecan, Switzerland) and the relative cell viability was calculated relative to untreated control (10 mM PBS, pH 7.0). Each treatment was performed in two triplicates and reported.

SMILES	dye release from PE:PG LUVs [1]	MIC against S. aureus or MRSA (n = 5) (S. aureus or MRSA)	dye leakage from PC/Cholesterol LUVs [2]	concentration at which peptide becomes cytotoxic toward HDF [3]	Cytotoxicity (in μg/ml) for HDFs [3]	Cytotoxicity for primary human dermal fibroblasts [3]	fold increase in the MIC values versus melittin (S. aureus or MRSA; S. aureus strains)
CC[C@H](C)[C@H](NC(=O)CN)C(=O)NCC(=O)N[C@@H](C)C(=O)N[C@H](C(=O)N[C@@H](CC(C)C)C(=O)NCCCC[C@H](N)C(=O)N[C@H](C(=O)N[C@@H](CC(C)C)C(=O)N[C@H](C(=O)N[C@H](C(=O)NCC(=O)N[C@@H](CC(C)C)C(=O)N1CCC[C@H]1C(=O)N[C@@H](C)C(=O)N[C@@H](CC(C)C)C(=O)N[C@H](C(=O)N[C@@H](CO)C(=O)N[C@@H](Cc1c[nH]c2ccccc12)C(=O)N[C@H](C(=O)N[C@@H](CCCCN)C(=O)N[C@@H](CCCNC(=N)N)C(=O)N[C@@H](CCCCN)C(=O)N[C@@H](CCCNC(=N)N)C(=O)N[C@@H](CCC(N)=O)C(=O)N[C@@H](CCC(N)=O)C(N)=O)[C@@H](C)CC)[C@@H](C)CC)[C@@H](C)O)[C@@H](C)O)C(C)C)C(C)C [Peptide 3]	~40%	8 to 32 µg/mL	< 20%	87.8 µM	250 µg/mL	250 µg/mL	–
CC[C@H](C)[C@H](NC(=O)CN)C(=O)NCC(=O)N[C@@H](C)C(=O)N[C@H](C(=O)N[C@@H](CC(C)C)C(=O)NCCCC[C@H](N)C(=O)N[C@H](C(=O)N[C@@H](CC(C)C)C(=O)N[C@H](C(=O)N[C@H](C(=O)NCC(=O)N[C@@H](CC(C)C)C(=O)N1CCC[C@H]1C(=O)N[C@@H](C)C(=O)N[C@@H](CC(C)C)C(=O)N[C@H](C(=O)N[C@@H](CO)C(=O)N[C@@H](Cc1c[nH]c2ccccc12)C(=O)N[C@H](C(=O)NCCCC[C@H](N)C(=O)N[C@@H](CCCNC(=N)N)C(=O)NCCCC[C@H](N)C(=O)N[C@@H](CCCNC(=N)N)C(=O)N[C@@H](CCC(N)=O)C(=O)N[C@@H](CCC(N)=O)C(N)=O)[C@@H](C)CC)[C@@H](C)CC)[C@@H](C)O)[C@@H](C)O)C(C)C)C(C)C [Peptide 4]	–	32 to 128 µg/mL	–	–	1000 µg/mL	1000 µg/mL	4-32 fold

— patent publication US11396531B2, “Antimicrobial peptides comprising epsilon lysine residues” (priority 2016, dated 2022)
